By IC50 is commonly meant the concentration needed to halve the response being measured.

For one compound, IC50 results are on record in US5068251A, “Lipoxygenase inhibiting compounds” (Abbott Laboratories, priority 1988, dated 1991).

The target in the test is T1, 5-lipoxygenase (Rattus norvegicus, UniProt P12527).
T1 construct: 20,000×g supernatant from homogenized RBL-1 cells; endogenous in cells; host or cells: RBL-1 cells (20,000×g supernatant of the homogenate)
T1 sequence (P12527 1-673): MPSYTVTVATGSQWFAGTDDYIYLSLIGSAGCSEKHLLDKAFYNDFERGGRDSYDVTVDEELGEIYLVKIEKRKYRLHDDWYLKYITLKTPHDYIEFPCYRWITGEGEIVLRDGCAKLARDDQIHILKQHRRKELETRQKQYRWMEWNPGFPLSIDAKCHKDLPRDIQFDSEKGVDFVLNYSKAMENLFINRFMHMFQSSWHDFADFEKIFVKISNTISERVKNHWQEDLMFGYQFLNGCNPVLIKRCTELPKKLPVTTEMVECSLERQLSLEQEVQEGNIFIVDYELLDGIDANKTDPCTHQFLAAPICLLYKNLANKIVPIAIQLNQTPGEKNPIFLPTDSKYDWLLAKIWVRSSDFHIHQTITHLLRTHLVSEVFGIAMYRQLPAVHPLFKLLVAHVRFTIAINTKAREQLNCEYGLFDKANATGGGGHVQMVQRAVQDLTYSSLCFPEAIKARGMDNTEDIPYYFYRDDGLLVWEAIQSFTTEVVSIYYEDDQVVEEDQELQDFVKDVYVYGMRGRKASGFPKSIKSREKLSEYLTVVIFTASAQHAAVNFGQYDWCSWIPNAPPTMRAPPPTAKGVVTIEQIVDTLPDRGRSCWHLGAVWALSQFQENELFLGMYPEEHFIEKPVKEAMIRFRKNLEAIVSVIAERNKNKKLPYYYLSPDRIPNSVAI
The experiment in a line: Inhibition of 5-lipoxygenase activity in 20,000×g supernatant from homogenized RBL-1 cells. It is filed as biochemical. The following applies: linear regression of percentage inhibition versus log inhibitor concentration, read-out: IC50 (In vitro 5-lipoxygenase inhibitory potency). As to the method:
Inhibition of 5-lipoxygenase activity was determined using the 20,000×g supernatant from homogenized RBL-1 cells in a similar manner as that described by Dyer and coworkers (Dyer, R. D.; Haviv, F.; Hanel, A. M.; Bornemier, D. A.; Carter, G. W. Fed. Proc , Fed. Am. Soc. Exp. Biol. 1984, 43, 1462A). IC50 values (concentration of compound producing 50% enzyme inhibition) were calculated by linear regression analysis of percentage inhibition versus log inhibitor concentration plots.

Take `COc1ccc2cc(C(C)NC(=O)NO)ccc2c1` (stereo not drawn) [Example 2, N'-hydroxy-N-[l-(6-methoxynaphthalen-2yl)ethyl]urea]: the concentration for half-maximal inhibition (IC50) amounted to 4.8 µM.
